The test deals with ovarian adenocarcinoma cell lines. The test is described as follows: Cell viability, ovarian adenocarcinoma cell lines taken together. The following applies: cisplatin-sensitive and cisplatin-resistant ovarian cancer cell lines. Format: cell-based. An excerpt: Cell lines, culture conditions, and reagents. Ovarian adenocarcinoma cell lines A2780 and ACRP were maintained in RPMI 1640 containing 10% fetal bovine serum. Ovarian adenocarcinoma lines CaOV-3 and OV90 were maintained in DMEM supplemented with 10% fetal bovine serum. ID8 mouse ovarian surface epithelial cells (MOSE) overexpressing VEGF and β-Defensin (VDID8+) were maintained in RPMI 1640 supplemented with 10% fetal bovine serum. The polyamine analogue ivospemin (SBP-101) was obtained from Panbela Therapeutics, Inc (Waconia, MN). All chemotherapeutics were purchased commercially from Sigma-Aldrich (St. Louis, MO).
Cell viability assays. Cells were seeded in triplicate wells per condition with a total cell count of 2×10^3 cells per well of a 96-well plate and allowed to adhere overnight. Cells then received 100 μL fresh medium with increasing concentrations of ivospemin. Following 96 hours of ivospemin monotherapy, 20 μL of CellTiter-Blue reagent (Promega, Madison, WI) was added, and following a 3-hour incubation, the fluorescence was measured in black, clear-bottom plates at 560Ex/590Em on a SpectraMax M5 (Molecular Devices, Sunnyvale CA). Wells containing medium alone were used as background controls. […] After an additional 24 hours (96 total hours of ivospemin, 24 hours of chemotherapy), cell viability was determined using the CellTiter-Blue cell viability assay. […]

Each structure is given as a SMILES string.

Take `COc1cccc2c1C(=O)c1c(O)c3c(c(O)c1C2=O)C[C@@](O)(C(=O)CO)C[C@@H]3OC1CC(N)C(O)C(C)O1` (stereo partly drawn) [doxorubicin, (8S,10S)-10-(4-amino-5-hydroxy-6-methyl-tetrahydro-2H-pyran-2-yloxy)-6,8,11-trihydroxy-8-(2-hydroxyacetyl)-1-methoxy-7,8,9,10-tetrahydrotetracene-5,12-dione]: the “added in vitro toxicity/benefit of the chemotherapeutic over ivospemin (SBP-101) alone” value is “increased the in vitro toxicity of SBP-101”.

The values above are taken from US20260272966A1, “COMBINATION TREATMENT FOR OVARIAN CANCER” (THE JOHNS HOPKINS UNIVERSITY, priority 2023, published 2026).
